This note sets out measurements from US8877944B2, “3-oxo-2,3-dihydro-1H-isoindole-4-carboxamides as PARP inhibitors” (Nerviano Medical Sciences S.R.L., priority 2009, dated 2014).

The chains behind the UniProt entries cited, without tags or fusion partners.
UniProt P09874, whole entry: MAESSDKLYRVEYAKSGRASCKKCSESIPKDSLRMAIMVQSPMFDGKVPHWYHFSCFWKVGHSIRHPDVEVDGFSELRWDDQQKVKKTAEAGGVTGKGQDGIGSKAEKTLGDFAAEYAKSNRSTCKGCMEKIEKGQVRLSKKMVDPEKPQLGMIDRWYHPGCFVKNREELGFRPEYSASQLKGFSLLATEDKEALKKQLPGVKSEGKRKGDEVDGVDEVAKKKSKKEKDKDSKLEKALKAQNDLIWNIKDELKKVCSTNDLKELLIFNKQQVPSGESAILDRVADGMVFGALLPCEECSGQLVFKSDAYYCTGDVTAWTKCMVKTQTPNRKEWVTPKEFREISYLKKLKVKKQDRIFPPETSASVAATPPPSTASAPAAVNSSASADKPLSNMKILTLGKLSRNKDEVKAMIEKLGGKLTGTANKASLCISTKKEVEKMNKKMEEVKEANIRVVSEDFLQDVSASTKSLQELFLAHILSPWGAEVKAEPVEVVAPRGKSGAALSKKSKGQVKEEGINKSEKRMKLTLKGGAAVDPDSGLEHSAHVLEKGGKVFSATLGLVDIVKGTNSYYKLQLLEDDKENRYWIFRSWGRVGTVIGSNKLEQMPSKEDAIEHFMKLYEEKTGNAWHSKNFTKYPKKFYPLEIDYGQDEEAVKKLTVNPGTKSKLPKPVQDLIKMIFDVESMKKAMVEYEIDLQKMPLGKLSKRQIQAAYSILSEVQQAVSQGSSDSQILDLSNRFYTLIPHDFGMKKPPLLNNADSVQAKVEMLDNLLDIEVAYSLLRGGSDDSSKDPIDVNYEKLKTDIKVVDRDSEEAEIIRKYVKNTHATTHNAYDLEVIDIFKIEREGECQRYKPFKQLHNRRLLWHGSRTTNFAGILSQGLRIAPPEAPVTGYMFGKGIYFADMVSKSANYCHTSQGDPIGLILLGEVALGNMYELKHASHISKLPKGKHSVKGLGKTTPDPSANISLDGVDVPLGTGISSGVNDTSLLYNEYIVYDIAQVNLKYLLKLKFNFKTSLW

In experiment [1] the test system is PAR formation in HeLa cells. Briefly: Cellular PAR assay: inhibition of hydrogen peroxide induced PAR formation. The note with it: Homo sapiens, read-out: PAR assay IC50.
For experiment [2], the target named is PARP-1 FL (Homo sapiens (Human), UniProt P09874). Kind of experiment: Fluorescence polarization probe displacement assay, PARP-1. The class given is binding. The note with it: for DC50: half maximal displacement concentration. In general terms: Polarisation of emitted light reports the rotation of a fluorescent probe.

For the compound `NC(=O)c1cccc2c1C(=O)N(C1CCN(Cc3ccc(F)cc3)CC1)C2` [Compound 11, 2-[1-(4-Fluorobenzyl)piperidin-4-yl]-3-oxo-2,3-dihydro-1H-isoindole-4-carboxamide], in experiment [1], the IC50 (usually the concentration that inhibits the measured activity by half) was determined as 3950 nM. The affinity in experiment [2] (compound P1 as the probe, 250 nM PARP-1), expressed as Kd, was 40 nM. For the same compound, the DC50 in experiment [2] is < 250 nM.
For the compound `NC(=O)c1ccc(F)c2c1C(=O)N(C1CCN(C3CCC(F)(F)CC3)CC1)C2` [Compound 101, 2-[1-(4,4-Difluorocyclohexyl)-piperidin-4-yl]-7-fluoro-3-oxo-2,3-dihydro-1H-isoindole-4-carboxamide], the IC50 in experiment [1] was determined as 1900 nM. Further, in experiment [2] (compound P3 as the probe, 100 nM PARP-1), the affinity, expressed as Kd, was 80 nM. Moreover, the DC50 in experiment [2] was < 250 nM.
